Molecules are shown by their SMILES.

The chains behind the UniProt entries cited, without tags or fusion partners. Residues count along the entry.
UniProt Q00987, 17-125: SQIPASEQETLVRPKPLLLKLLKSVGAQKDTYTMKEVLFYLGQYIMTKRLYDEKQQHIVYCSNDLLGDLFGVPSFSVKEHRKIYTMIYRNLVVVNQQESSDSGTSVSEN

Among the data in patent EP2951180B1, “2,6,7,8 SUBSTITUTED PURINES AS HDM2 INHIBITORS” (Merck Sharp & Dohme Corp., priority 2013, dated 2014) are IC50 values, retold here.

One test concerns the target T1, HDM2 (Homo sapiens, UniProt Q00987).
T1 construct: Thioredoxin (N); made in house; host or cells: E. coli strain BL21(DE3)Rosetta
The experiment in a line: HDM2 FRET assay (inhibition of binding of FITC labeled p53-pocket peptide to HDM2). Conditions: 0.5 nM HDM2 (residues 17 to 125), 3nM peptide, two hour incubation at room temperature.
On to `C[C@@H](Nc1nc([S+](C)[O-])nc2nc(N3CCCCC3c3ccccc3)n(C[C@H]3CC[C@H](C)CC3)c12)C1CCC1` (single isomer, unassigned) [Example 14.11], for which the 50% inhibitory concentration (IC50) was 417 nM.
Consider `C[C@@H](Nc1nc([S+](C)[O-])nc2nc(N3CCCCC3c3ccccc3)n(C[C@H]3CC[C@H](C)CC3)c12)C1CCC1` (single isomer, unassigned) [Example 14.12], for which the IC50 is 25.9 nM.
Still for that read-out and setting: the value for `C[C@@H](Nc1nc([S+](C)[O-])nc2nc(N3CCCCC3c3ccccc3)n(C[C@H]3CC[C@H](C)CC3)c12)C1CCC1` (single isomer, unassigned) [Example 14.14] was 186 nM; that for `C[C@@H](Nc1nc([S+](C)[O-])nc2nc(N3CCCCC3c3ccccc3)n(C[C@H]3CC[C@H](C)CC3)c12)C1CCC1` (single isomer, unassigned) [Example 14.13] was 646 nM.

The test is the same for the next values; noted with them: Table 9.
`C[C@@H](Nc1nc(-c2noc(=O)[nH]2)nc2nc(N3CCOCC3c3ccccc3)n(Cc3ccc(C(F)(F)F)c(F)c3)c12)C1CCC1` (single isomer, unassigned) [Example 9.56] came in with a 50% inhibitory concentration (IC50) of 2.25 nM.
As to `C[C@@H](Nc1nc(-c2noc(=O)[nH]2)nc2nc(N3CCOCC3c3ccccc3)n(Cc3ccc(C(F)(F)F)c(F)c3)c12)C1CCC1` (single isomer, unassigned) [Example 9.55], the IC50 was determined as 3.05 nM. This IC50 and that of the compound before are within 1.5-fold of each other.

The same test, now with this note: Table 11.
In turn, `CC(c1ccccn1)N(C)c1nc2nc(-c3noc(=O)[nH]3)nc(N[C@H](C)C3CCC3)c2n1C[C@H]1CC[C@H](C)CC1` (single isomer, unassigned) [Example 11.25] returned an IC50 of 10.5 nM. This lies in the double-digit nanomolar range.
As to `CC(Nc1nc2nc(-c3noc(=O)[nH]3)nc(N[C@H](C)C3CCC3)c2n1C[C@H]1CC[C@H](C)CC1)c1cnccn1` (single isomer, unassigned) [Example 11.91], the IC50 amounted to 3.67 nM.
Still for that read-out and setting: in the case of `CC(c1ccccn1)N(C)c1nc2nc(-c3noc(=O)[nH]3)nc(N[C@H](C)C3CCC3)c2n1C[C@H]1CC[C@H](C)CC1` (single isomer, unassigned) [Example 11.24] it was 11.6 nM.
The compound `CC(Nc1nc2nc(-c3noc(=O)[nH]3)nc(N[C@H](C)C3CCC3)c2n1C[C@H]1CC[C@H](C)CC1)c1cnccn1` (single isomer, unassigned) [Example 11.93] yielded an IC50 of 11.9 nM.

The test is the same for the next values; noted with them: Table 18.
`Cc1cccc(-c2nc3nc(C(=O)O)nc(N[C@H](C)C4CC4)c3n2CC2CCC(C(F)(F)F)CC2)c1` (single isomer, unassigned) [Example 18.28] gave a half-maximal inhibitory concentration (IC50) of 386 nM. In other words, the sub-micromolar range.
Same read-out and setting: in the case of `CC([C@H]1CC[C@H](C)CC1)n1c(N2CCOC3CCCC32)nc2nc(-c3noc(=O)[nH]3)nc(N[C@H](C)C3CCC3)c21` (single isomer, unassigned) [Example 18.38] it was 16.6 nM.
`CC([C@H]1CC[C@H](C)CC1)n1c(N2CCOC[C@H]2C)nc2nc(-c3noc(=O)[nH]3)nc(-c3cccc(Cl)c3)c21` (single isomer, unassigned) [Example 18.34]: the half-inhibitory concentration (IC50) came out at 5.62 nM.
On the same count and under the same terms, the value for `Cc1cccc(-c2nc3nc(C(=O)O)nc(N[C@H](C)C4CC4)c3n2CC2CCC(C(F)(F)F)CC2)c1` (stereo partly drawn) [Example 18.26, 6-{[(1R)-1-cyclopropylethyl]amino} -8-(3-methylphenyl)-7-{[4-(trifluoromethyl)cyclohexyl]methyl}-7H-purine-2-carboxylic acid] was 297 nM; that for `CC([C@H]1CC[C@H](C)CC1)n1c(N2CCOC3CCCC32)nc2nc(-c3noc(=O)[nH]3)nc(N[C@H](C)C3CCC3)c21` (single isomer, unassigned) [Example 18.42] was 5.77 nM.
Turning to `CC([C@H]1CC[C@H](C)CC1)n1c(N2CCOC3CCCC32)nc2nc(-c3noc(=O)[nH]3)nc(N[C@H](C)C3CCC3)c21` (single isomer, unassigned) [Example 18.41], the IC50 amounted to 2.57 nM.
For the compound `CC([C@H]1CC[C@H](C)CC1)n1c(N2CCOC[C@H]2C)nc2nc(-c3noc(=O)[nH]3)nc(-c3cccc(Cl)c3)c21` (single isomer, unassigned) [Example 18.33], the IC50 is 3.14 nM.
Take `Cc1cccc(-c2nc3nc(C(=O)O)nc(N[C@H](C)C4CC4)c3n2CC2CCC(C(F)(F)F)CC2)c1` (single isomer, unassigned) [Example 18.27]: the IC50 came out at 338 nM. This IC50 is about 110-fold higher than that of the compound before.

Still in this test, the particulars now being: Table 21.
`CC(c1nc2nc(-c3noc(=O)[nH]3)nc(N[C@H](C)C3CCC3)c2n1C[C@H]1CC[C@H](C)CC1)C1CCCCC1` (single isomer, unassigned) [Example 21.23] displayed a half-maximal inhibitory concentration (IC50) of 1.82 nM.
Same read-out and setting: the value for `C[C@@H](Nc1nc(-c2noc(=O)[nH]2)nc2nc(C3CCOCC3c3ccccc3)n(C[C@H]3CC[C@H](C)CC3)c12)C1CCC1` (single isomer, unassigned) [Example 21.28] was 3.35 nM; that for `CC(c1nc2nc(-c3noc(=O)[nH]3)nc(N[C@H](C)C3CCC3)c2n1C[C@H]1CC[C@H](C)CC1)C1CCCCC1` (single isomer, unassigned) [Example 21.22] was 7.81 nM.
Take `C[C@@H](Nc1nc(-c2noc(=O)[nH]2)nc2nc(C3CCOCC3c3ccccc3)n(C[C@H]3CC[C@H](C)CC3)c12)C1CCC1` (single isomer, unassigned) [Example 21.29]: the 50% inhibitory concentration (IC50) worked out at 20.2 nM.

The test is the same for the next values; noted with them: Table 22.
The compound `CC(c1cscn1)c1nc2nc(-c3noc(=O)[nH]3)nc(N[C@H](C)C3CCC3)c2n1C[C@H]1CC[C@H](C)CC1` (single isomer, unassigned) [Example 22.27] returned an IC50 of 14.3 nM.
Same read-out and setting: in the case of `C[C@@H](Nc1nc(-c2noc(=O)[nH]2)nc2nc(C(C)(F)c3ccccn3)n(C[C@H]3CC[C@H](C)CC3)c12)C1CCC1` (single isomer, unassigned) [Example 22.9] it was 2.83 nM; in that of `C[C@@H](Nc1nc(-c2noc(=O)[nH]2)nc2nc(C(C)(F)c3ccccn3)n(C[C@H]3CC[C@H](C)CC3)c12)C1CCC1` (single isomer, unassigned) [Example 22.8], 1.3 nM.
Same read-out and setting: the value for `C[C@@H](Nc1nc(-c2noc(=O)[nH]2)nc2nc(C(C)(O)c3cccc(F)c3)n(C[C@H]3CC[C@H](C)CC3)c12)C1CCC1` (single isomer, unassigned) [Example 22.37] was 277 nM.
Compound `C[C@@H](Nc1nc(-c2noc(=O)[nH]2)nc2nc(C(O)CO)n(C[C@H]3CC[C@H](C)CC3)c12)C1CCC1` (single isomer, unassigned) [Example 22.17] gave an IC50 of 148 nM. Compared with the last compound, the IC50 is about 1.9-fold lower.
The same measure, in the same setting: in the case of `C[C@@H](Nc1nc(-c2noc(=O)[nH]2)nc2nc(C(C)(O)c3ccccc3F)n(C[C@H]3CC[C@H](C)CC3)c12)C1CCC1` (single isomer, unassigned) [Example 22.3] it was 7.21 nM.
`C[C@@H](Nc1nc(-c2noc(=O)[nH]2)nc2nc(C(C)(O)c3cccc(F)c3)n(C[C@H]3CC[C@H](C)CC3)c12)C1CCC1` (single isomer, unassigned) [Example 22.35] showed an IC50 of 47 nM.
Still for that read-out and setting: the value for `CC(c1cscn1)c1nc2nc(-c3noc(=O)[nH]3)nc(N[C@H](C)C3CCC3)c2n1C[C@H]1CC[C@H](C)CC1` (single isomer, unassigned) [Example 22.26] was 1.43 nM.
Compound `C[C@@H](Nc1nc(-c2noc(=O)[nH]2)nc2nc(C(C)(O)c3ccccc3F)n(C[C@H]3CC[C@H](C)CC3)c12)C1CCC1` (single isomer, unassigned) [Example 22.4] displayed a concentration for half-maximal inhibition (IC50) of 41.2 nM. This IC50 is about 29-fold higher than that of the compound before.
The compound `C[C@@H](Nc1nc(-c2noc(=O)[nH]2)nc2nc(C(O)CO)n(C[C@H]3CC[C@H](C)CC3)c12)C1CCC1` (single isomer, unassigned) [Example 22.18] returned a 50% inhibitory concentration (IC50) of 91.8 nM.

For orientation: IC50 means the concentration that inhibits the measured activity by half. Low readings indicate higher potency, high ones lower potency.
